# Assay results taken from patent US20250041255A1, “COMPOSITIONS AND METHODS FOR TREATING AUTOIMMUNE SKIN DISEASES” (published 2025).
# Chains of the proteins cited; added tags and fusions are not shown.
# UniProt Q16665, whole entry, looked up: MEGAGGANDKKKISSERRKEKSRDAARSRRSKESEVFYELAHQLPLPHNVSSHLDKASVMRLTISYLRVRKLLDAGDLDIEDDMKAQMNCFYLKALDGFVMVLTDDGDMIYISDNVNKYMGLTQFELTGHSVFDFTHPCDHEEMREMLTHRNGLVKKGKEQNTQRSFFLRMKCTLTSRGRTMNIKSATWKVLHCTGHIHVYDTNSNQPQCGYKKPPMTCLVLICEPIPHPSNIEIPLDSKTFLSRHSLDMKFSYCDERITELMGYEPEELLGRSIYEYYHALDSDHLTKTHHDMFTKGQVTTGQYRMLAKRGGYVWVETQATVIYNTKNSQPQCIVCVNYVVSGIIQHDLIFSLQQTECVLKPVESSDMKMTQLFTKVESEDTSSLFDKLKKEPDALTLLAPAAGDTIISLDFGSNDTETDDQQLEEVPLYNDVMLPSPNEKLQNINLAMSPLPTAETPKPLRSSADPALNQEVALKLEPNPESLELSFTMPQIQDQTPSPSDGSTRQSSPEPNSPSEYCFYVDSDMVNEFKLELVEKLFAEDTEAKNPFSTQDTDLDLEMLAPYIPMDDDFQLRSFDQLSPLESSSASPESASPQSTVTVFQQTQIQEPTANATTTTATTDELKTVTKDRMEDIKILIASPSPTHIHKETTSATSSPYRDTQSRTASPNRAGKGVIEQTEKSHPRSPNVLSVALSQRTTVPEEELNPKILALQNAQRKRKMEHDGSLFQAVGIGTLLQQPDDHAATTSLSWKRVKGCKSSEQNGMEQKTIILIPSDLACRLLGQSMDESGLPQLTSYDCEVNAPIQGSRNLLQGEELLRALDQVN
# Columns and labels:
# HIF-1β = settings: cited from earlier work
# [1] = test system: MRL/lpr mice (murine CLE); assay: Pharmacologic HIF-1 blockade, 4-week treatment of MRL/lpr mice: skin assessment, histopathologic scoring, Gzmb RNA in situ hybridization
# [2] = test system: CD4+ and CD8+ skin-infiltrating and splenic T cells; assay: Single-cell RNA sequencing of skin and spleen cells of MRL/lpr mice after 5-day course of high dose PX-478; settings: for Th17 enrichment score: FIG. 4E
# HIF-1α protein = HIF-1α protein (Homo sapiens, UniProt Q16665); settings: cited from earlier work
# [3] = CD4+ and CD8+ skin-infiltrating T cells, 30 mg/kg daily for 5 days vs PBS, FIG. 4B
structure (smiles),measurement,setting,value
NC(Cc1ccc([N+]([O-])(CCCl)CCCl)cc1)C(=O)O (stereo not drawn),effect on HIF-1β,HIF-1β,little or no effect
same,histopathologic disease score of the interscapular skin,"[1]; 20-week-old MRL/lpr mice after 4 weeks of treatment, vs vehicle, FIG. 3B",reduced
same,clinical skin disease (dermatitis score),"[1]; 20-week-old MRL/lpr mice after 4 weeks oral gavage 5 mg/kg every 2 days, vs PBS vehicle, FIG. 3A",significantly reduced
same,proportion of cells expressing granzyme B in affected skin,"[1]; RNA in situ hybridization, percent Gzmb+ cells per high power field, 20-week-old MRL/lpr mice after 4 weeks of treatment, FIG. 3D",decreased
same,transcripts of Hif1a,[2]; [3],decreased
same,transcripts of Mxi1,[2]; [3],decreased
same,Hif1α Enrichment Score (GSEA),"[2]; CD4+ and CD8+ skin-infiltrating T cells, FIG. 4C",reduced
same,"Gzmb, Gzmk, and Fasl transcripts (cytotoxic potential)","[2]; CD8+ skin-infiltrating T cells, FIG. 4B",decreased
same,Th17 enrichment score,[2]; skin-infiltrating CD4+ T cells,decrease
same,cytotoxicity enrichment score,"[2]; skin-infiltrating CD8+ T cells, FIG. 4D",reduced
same,expression of exhaustion markers Pdcd1 and Tigit,"[2]; skin-infiltrating CD8+ T cells, FIG. 7F",reduced
same,transcripts of Hif1a and Mxi1,"[2]; splenic T cells, 30 mg/kg daily for 5 days vs PBS, FIG. 4B",but not splenic T cells
same,cytotoxic potential,"[2]; splenic T cells, FIG. 4B",but not splenic T cells
same,Th17 enrichment score,[2]; splenic T cells,not seen
same,hypoxia-induced increase in HIF-1α protein,HIF-1α protein,significantly decreases
